Assay results from patent publication EP4831188A1, “GLYCYRRHETINIC ACID DERIVATIVE AND USE THEREOF” (dated 2026).
Marks after values point to notes of the source that are not given here.

How the values were obtained:
[1] = tested on: SD rats; assay: Radiation dermatitis assay (X-ray, 25 Gy); conditions: for Score (skin lesion score of radiation dermatitis): end of administration; for Score (skin lesion score of radiation dermatitis) / Number of inflammatory cells: 100 mg once daily for 28 days, test compounds 0.5% cream, triethanolamine cream 0.67%, hydrocortisone butyrate cream 1 mg/g; for content of the cytokine TGF-β1 / number of inflammatory cells in the rat radiation dermatitis model / release of the inflammatory cytokine TNF-α / skin lesion area / skin lesion score in the rat radiation dermatitis model / amount of new granulation tissue in the dermis / number of capillaries in the dermis: result in words; for amount of new granulation tissue in the dermis / number of capillaries in the dermis: pathological observation of rat skin; for Number of inflammatory cells: skin, HE staining
Protocol: • 5.1 Animals: SD rats, SPF grade, male, 230-250 g. • 5.2 Equipment: RS 2000·Pro 225 Rad Source X-ray Irradiator; SpectraMax i3 Multifunctional Microplate Reader.
Eighty SD rats were randomly divided into groups, with 10 rats in each group. Except for the blank control group, all rats were subjected to modeling using a Rad Source X-ray irradiator. The hair on the irradiation site was removed 24 hours before irradiation. On the day of irradiation, the rats were anesthetized and received a single X-ray irradiation on the posterior buttock at a dose of 25 Gy, a dose rate of 4 Gy/min, and an irradiation area of 2×2 cm^2. On the second day after irradiation, the test groups (Compound 1, Compound 16, Compound 21) received the corresponding drugs, 100 mg per time, once daily for 28 consecutive days. The blank control group and the model (with matrix) group received the corresponding weight of blank matrix (triethanolamine cream matrix). The positive control group was treated with the corresponding weight of triethanolamine cream or hydrocortisone butyrate cream. At the end of administration, the damaged skin was scored according to erythema/darkening, edema/papules, exudation/crusting, and erosion, with reference to the scoring criteria for atopic dermatitis. After scoring, skin from the damaged site was collected and homogenized, and the content of inflammatory cells in the skin was detected using an ELISA kit. Additional skin was collected, fixed, and then stained with HE, and the number of inflammatory cells was observed.
• Test compounds: The formulations were prepared with reference to triethanolamine cream (test compound concentration: 0.5%). • Positive controls: Commercially available triethanolamine cream (from JOHNSON & JOHNSON SANTE BEAUTE FRANCE, specification: 0.67%); hydrocortisone butyrate cream (from Hubei Heng'an Fulin Pharmaceutical Co., Ltd., specification: 1 mg/g).

[2] = tested on: ICR mice; assay: Inhibitory activity assay against ear swelling in ICR mice (phorbol ester, TPA); conditions: for inhibitory activity in the mouse ear swelling inflammation model induced by phorbol ester: result in words; for Thickness: right ear, test compounds 3% cream, pimecrolimus cream 10 mg/g, compound dexamethasone acetate cream 0.75 mg/g, 50 µL
Protocol: • ICR mice, male, 20±2 g. • 3.2 Reagents: Inflammatory agent (phorbol ester (TPA)).
ICR mice were randomly divided into groups, with 8 mice in each group. The thickness of the right ear of each animal was measured using a micrometer. Subsequently, except for the blank control group, all mice in other groups were administered 20 µL of 0.03% TPA on both the inner and outer sides of the right ear (10 µL per side) to induce inflammation. The mice were dosed once at 1 h before modeling and 1 h after modeling, respectively. The test groups (Compound 1, Compound 16) received a dose volume of 50 µL each time. The blank control group and the model group (with matrix) were treated with the corresponding volumes of blank matrix (pimecrolimus cream matrix). The positive control group was treated with an equal volume of pimecrolimus cream or compound dexamethasone acetate cream. Before modeling, the ears should be cleaned prior to TPA application. Ear thickness measurement: The thickness of the right ear was measured at 0 h, 2 h, 4 h, and 6 h after TPA induction.
• Test compounds: The formulations were prepared with reference to pimecrolimus cream (from MEDA Manufacturing) (test compound concentration: 3%). • Positive control: Commercially available compound dexamethasone acetate cream (from China Resources Sanjiu Medical & Pharmaceutical Co., Ltd., specification: 0.75 mg/g); commercially available pimecrolimus cream (from MEDA Manufacturing, specification: 10 mg/g).

[3] = tested on: BALB/c mice; assay: Chloroquine-induced pruritus in mice; conditions: for Number of scratching bouts: 100 mg once daily for 3 days, test compounds 3% cream, pimecrolimus cream 10 mg/g; for number of scratching bouts in mice: result in words
Protocol: • 6.1 Animals: Balb/c mice, female. • 6.2 Reagents: Chloroquine; normal saline.
After 3 days of adaptive feeding, 50 female Balb/c mice were randomly divided into groups, with 10 mice in each group. The hair on a 2×3 cm^2 area of the back of each mouse was completely removed using depilatory cream. Except for the blank control group, the test groups (Compound 1, Compound 16) and the model group were treated with the corresponding drugs or matrix (pimecrolimus cream matrix) at the depilated site, 100 mg per time, once daily for 3 consecutive days. The positive control group was treated with the corresponding weight of pimecrolimus cream. Thirty minutes after the last administration, chloroquine (40 mg/kg) was injected subcutaneously. The blank control group was injected subcutaneously with the corresponding volume of normal saline only. The number of scratching bouts within 20 min after chloroquine injection was recorded.
• Test compounds: The formulations were prepared with reference to pimecrolimus cream (test compound concentration: 3%). • Positive control: Commercially available pimecrolimus cream (from MEDA Manufacturing, specification: 10 mg/g).

Molecule	Score (skin lesion score of radiation dermatitis) [1]	content of the cytokine TGF-β1 [1]	number of inflammatory cells in the rat radiation dermatitis model [1]	release of the inflammatory cytokine TNF-α [1]	skin lesion area [1]	skin lesion score in the rat radiation dermatitis model [1]	amount of new granulation tissue in the dermis [1]	number of capillaries in the dermis [1]	Number of inflammatory cells [1]	inhibitory activity in the mouse ear swelling inflammation model induced by phorbol ester [2]	Thickness ([2]; 0 h after TPA induction)	Thickness ([2]; 2 h after TPA induction)	Thickness ([2]; 4 h after TPA induction)	Thickness ([2]; 6 h after TPA induction)	Number of scratching bouts ([3]; 0-10 min after chloroquine 40 mg/kg s.c.)	Number of scratching bouts ([3]; 0-20 min after chloroquine 40 mg/kg s.c.)	Number of scratching bouts ([3]; 10-20 min after chloroquine 40 mg/kg s.c.)	number of scratching bouts in mice [3]
CCN(CC)CCOC(=O)[C@@]1(C)CC[C@]2(C)CC[C@]3(C)C(=CC(=O)[C@@H]4[C@@]5(C)CCC(=O)C(C)(C)[C@@H]5CC[C@]43C)[C@@H]2C1	4.8 ··	significantly reduce	significantly reduce	significantly reduce	significantly reduce	significantly reduce	significantly increased	significantly increased	186.6+78.6***	significant inhibitory activity	0.213 ± 0.01 mm	0.264 ± 0.027 mm	0.300±0.043 mm	0.293±0.066 mm	18+6	36 ·	18 ·	significantly reduce
(2S,4aS,6aS,6bR,8aR,12aS,12bR,14bR)-11-chloro-2,4a,6a,6b,9,9,12a-heptamethyl-10,13-dioxo-1,2,3,4,4a,5,6,6a,6b,7,8,8a,9,10,12a,12b,13,14b-octadecahydropicene-2-carboxylate triethanolamine salt		significantly reduce	significantly reduce	significantly reduce	significantly reduce	significantly reduce	significantly increased	significantly increased		significant inhibitory activity								significantly reduce
CCN(CC)CCOC(=O)[C@@]1(C)CC[C@]2(C)CC[C@]3(C)C(=CC(=O)[C@@H]4[C@@]5(C)C=C(C#N)C(=O)C(C)(C)[C@@H]5CC[C@]43C)[C@@H]2C1		significantly reduce	significantly reduce	significantly reduce	significantly reduce	significantly reduce	significantly increased	significantly increased		significant inhibitory activity								significantly reduce
CCN(CC)CCOC(=O)[C@@]1(C)CC[C@]2(C)CC[C@]3(C)C(=CC(=O)[C@@H]4[C@@]5(C)CCC(=O)C(C)(C)[C@@H]5CC[C@]43C)[C@@H]2C1.Cl		significantly reduce	significantly reduce	significantly reduce	significantly reduce	significantly reduce	significantly increased	significantly increased		significant inhibitory activity								significantly reduce
CN(C)c1nc2c(s1)C[C@]1(C)[C@H]3C(=O)C=C4[C@@H]5C[C@@](C)(C(=O)O)CC[C@]5(C)CC[C@@]4(C)[C@]3(C)CC[C@H]1C2(C)C	4.8 ··	significantly reduce	significantly reduce	significantly reduce	significantly reduce	significantly reduce	significantly increased	significantly increased	189 ···	significant inhibitory activity								significantly reduce
CCN(CC)CCOC(=O)[C@@]1(C)CC[C@]2(C)CC[C@]3(C)C(=CC(=O)[C@@H]4[C@@]5(C)CCC(=O)C(C)(C)[C@@H]5CC[C@]43C)[C@H]2C1		significantly reduce	significantly reduce	significantly reduce	significantly reduce	significantly reduce	significantly increased	significantly increased		significant inhibitory activity								significantly reduce
CC1(C)C(=O)C(Cl)=C[C@]2(C)[C@H]3C(=O)C=C4[C@H]5C[C@@](C)(C(=O)O)CC[C@]5(C)CC[C@@]4(C)[C@]3(C)CC[C@@H]12		significantly reduce	significantly reduce	significantly reduce	significantly reduce	significantly reduce	significantly increased	significantly increased		significant inhibitory activity								significantly reduce
